Literature values in patent publication US11013780B2, “Methods of treating female infertility” (Myovant Sciences GmbH, priority 2016, dated 2021).

Details: in vivo; cited from earlier work

Question: With “hCG: human chorionic gonadotropin hormone, used as a trigger due to its structural similarity to LH” as the substance, how does the Half-life read?
Answer: The Half-life was 24 to 36 h.
